We go through one compound from PMC7327383, “The affinity and selectivity of α‐adrenoceptor antagonists, antidepressants, and antipsychotics for the human α1A, α1B, and α1D‐adrenoceptors” (Pharmacology Research & Perspectives, 2020).

Protein sequences, listed by entry. Tags and fused reporters are not part of them.
UniProt P35368, whole entry: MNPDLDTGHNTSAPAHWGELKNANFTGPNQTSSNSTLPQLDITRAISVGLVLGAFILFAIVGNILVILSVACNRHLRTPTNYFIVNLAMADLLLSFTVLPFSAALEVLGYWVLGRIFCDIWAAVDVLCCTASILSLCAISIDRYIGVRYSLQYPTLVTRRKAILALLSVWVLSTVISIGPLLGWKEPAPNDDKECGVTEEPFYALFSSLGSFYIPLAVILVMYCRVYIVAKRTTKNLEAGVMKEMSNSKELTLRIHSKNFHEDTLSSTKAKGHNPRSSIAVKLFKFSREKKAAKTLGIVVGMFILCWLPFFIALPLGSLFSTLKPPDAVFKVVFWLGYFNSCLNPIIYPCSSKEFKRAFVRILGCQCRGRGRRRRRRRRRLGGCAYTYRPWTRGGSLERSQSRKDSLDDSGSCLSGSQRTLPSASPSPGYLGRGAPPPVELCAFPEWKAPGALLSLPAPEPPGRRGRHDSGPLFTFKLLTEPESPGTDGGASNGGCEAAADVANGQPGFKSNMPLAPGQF

This assay deals with human α1B-adrenoceptor (Homo sapiens, UniProt P35368). The assay can be described thus: [3H]prazosin whole-cell competition binding, CHO-α1B cells.

In general, Kd refers to the constant that tells how readily two partners part at equilibrium.

Take `COC(=O)C1=C(C)NC(C)=C(C(=O)NCCCN2CCC(c3ccccc3)(c3ccccc3)CC2)C1c1ccc([N+](=O)[O-])cc1` (stereo not shown) [SNAP5089]: binding was characterised by a dissociation constant (Kd) of 2290 nM.
